Assay outcomes (PubChem)
HCMV NEC inh: inhibitors of HCMV UL50-UL53 interaction, biochemical, HTRF; HCMV UL50-UL53 nuclear egress complex (human cytomegalovirus); normalized percent inhibition; inhibition, % (test concentration not listed); 0.15% of 190,000 active; in the data active = inhibition above about 27%, passing the limit was not always enough
GIV Gai3 FP: inhibitors of GIV GBA-motif binding to rat Galpha-i3; percent of control (FP), % (concentration not given with the values); AID 1224905; Galpha-i3/FITC-GIV peptide fluorescence polarization, 90 min; stronger effect = lower value; scaled: aluminum fluoride 0%, vehicle 100%; 210,000 compounds, 0.42% hits; P08753;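 active means replicate mean at 85% of control or lower, very high polarization wells dropped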;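 further: wells of about 15 µL received 100 nL stock; the first replicate is given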
Starred values were filed as active, the others as inactive; . = no result given; ! = repeats disagree. Only a selection was taken, and hits are over-represented in it overall.

1	CCC(=O)N1c2ncnn2C(c2ccccc2OC)CC1c1ccccc1 (stereo not given)
2	Cc1nc(-c2ccc(C)c(S(=O)(=O)N3CCC(C(=O)N4CCN(c5ccc(Cl)cc5)CC4)CC3)c2)no1
3	O=C(O)c1ccccc1-c1ccccc1C(=O)O
4	O=C(O)c1ccccc1C1=Nc2ccc(O)cc2Oc2cc(O)ccc21
5	Cc1ccc(N2C(=O)CSC23C(=O)Nc2ccccc23)c(C)c1 (stereo not given)
6	Cc1ccc(Nc2nnc(C)c(=O)[nH]2)cc1
7	Cc1ccc(NC2=CC(=O)c3sc(C)nc3C2=O)cc1
8	CC1=C(C(=O)OC(C)C)C(c2sccc2C)c2c(nc(SCC(C)C)[nH]c2=O)N1 (stereo not given)

screen / no. | 1 | 2 | 3 | 4 | 5 | 6 | 7 | 8
HCMV NEC inh | . | -30 | 8 | -27 | . | -4 | 103*! | -29
GIV Gai3 FP | 108 | 98 | 110 | -91* | 106 | 101 | . | 98

Overlap with the part before: 2 entries, then new ones.
7	Cc1ccc(NC2=CC(=O)c3sc(C)nc3C2=O)cc1
8	CC1=C(C(=O)OC(C)C)C(c2sccc2C)c2c(nc(SCC(C)C)[nH]c2=O)N1 (stereo not given)
9	CCOC(=O)C1=C(C)N=c2s/c(=C\c3cc(Br)c(OC)cc3OC)c(=O)n2C1c1cccs1 (stereo not given)
10	CCOC(=O)C1=C(C)N=c2s/c(=C\c3cc(Br)c(O)c(OC)c3)c(=O)n2C1c1cccs1 (stereo not given)
11	CCOC(=O)C1=C(C)N=c2s/c(=C\c3cc(Br)c(O)c(OC)c3)c(=O)n2C1c1ccc2c(c1)OCO2 (stereo not given)
12	CCOC(=O)C1=C(C)N=c2s/c(=C\c3cc(OC)c(OC)c(OC)c3)c(=O)n2C1c1ccc2c(c1)OCO2 (stereo not given)
13	CC(=O)N(c1ccccc1)c1nc(/C=C(\C#N)C(=O)Nc2nccs2)cs1
14	Cc1cc(NC(=O)CSc2nc3ccccc3c(=O)n2Cc2ccco2)no1
15	N#Cc1c(N)oc(-c2ccc3c(c2)OCO3)c1-c1ccc2c(c1)OCO2
16	N#Cc1c(-c2ccc3c(c2)OCO3)cc(-c2ccc(F)cc2)nc1N

screen / no. | 7 | 8 | 9 | 10 | 11 | 12 | 13 | 14 | 15 | 16
HCMV NEC inh | 103*! | -29 | -30 | -18 | -23 | -22 | -31 | 0 | -55 | 2
GIV Gai3 FP | . | 98 | 147 | 77* | -57* | 103 | . | 104 | -54* | 111

17	CCOC(=O)C1=C(C)N=c2s/c(=C/c3cc([N+](=O)[O-])ccc3O)c(=O)n2C1c1ccc(SC)cc1 (stereo not given)
18	CCOC(=O)C1=C(C)N=c2s/c(=C/c3cccc([N+](=O)[O-])c3O)c(=O)n2C1c1cc(OC)c(OC)c(OC)c1 (stereo not given)
19	CCOC(=O)C1=C(C)N=c2s/c(=C/c3cc([N+](=O)[O-])ccc3N3CCN(C)CC3)c(=O)n2C1c1ccc(F)cc1 (stereo not given)
20	CCOC(=O)C1=C(C)N=c2s/c(=C/c3cc(Br)cc([N+](=O)[O-])c3O)c(=O)n2C1c1ccccc1 (stereo not given)
21	COC(=O)CN1C(=O)C2(C(C#N)=C(N)Oc3c2c(C)nn3-c2cccc(Cl)c2)c2ccccc21 (stereo not given)
22	NC(=O)C(F)(F)c1ccccc1
23	O=C(CSc1ncnc2c1oc1ccccc12)NCc1ccccc1
24	O=C(CSc1ncnc2c1oc1ccccc12)NC1CCCCC1

screen / no. | 17 | 18 | 19 | 20 | 21 | 22 | 23 | 24
HCMV NEC inh | . | . | . | . | . | 8 | 6 | 62*
GIV Gai3 FP | 26* | 108 | 100 | 26* | 106 | . | . | .

25	Cc1c(C(=O)N2CCN(c3ccccc3)CC2)oc2ccc3c(c12)C(O)CC(C)(C)O3 (stereo not given)
26	CCCc1[nH]nc2c1C(c1ccc(OC)cc1CSc1ccccn1)C(C#N)=C(N)O2 (stereo not given)
27	CN1C(=O)N(C)C2C1NC(=O)N2C1CCCCC1 (stereo not given)
28	O=C1CC(=O)N(Cc2cccs2)C(=O)N1
29	O=C1CC(=O)N(Cc2ccco2)C(=O)N1
30	COc1cc(OC)c(OC)cc1CN1CCN(c2cccc(C)c2C)CC1
31	COc1ccccc1N1CCN(Cc2cccc3ccccc23)CC1
32	COC(=O)C(NC(=O)c1cccc(Cl)c1)(Nc1sc2c(c1C#N)CCC(C)C2)C(F)(F)F (stereo not given)

screen / no. | 25 | 26 | 27 | 28 | 29 | 30 | 31 | 32
HCMV NEC inh | -2 | . | . | -5 | 87* | 73* | -16 | .
GIV Gai3 FP | 99 | 101 | 121 | 114 | 59* | 98 | 102 | 112

33	N#Cc1c(N2CCCC(O)C2)nc(N)c2c(N)nc3c(c12)CC(=O)N3C12CC3CC(CC(C3)C1)C2 (stereo not given)
34	C=C(C)CN(CC)c1nc(N)c2c(N)nc3c(c2c1C#N)CC(=O)N3C12CC3CC(CC(C3)C1)C2
35	CN(C)/C=c1\s/c(=C/C(=O)c2cccs2)[nH]c1=O
36	O=C(/C=c1/[nH]c(=O)/c(=C/c2ccccc2C(F)(F)F)s1)c1ccco1
37	C#CCN1C(=O)S/C(=C/C=C/c2ccc(N(C)C)cc2)C1=O
38	CN1C(=O)/C(=C\C=C\c2ccc(N(C)C)cc2)SC1=S
39	CC(=O)N1CCOc2cc(S(=O)(=O)NCCN(C)C)c(Cl)cc21
40	CN(C)c1ccc(/C=C2/C(=O)c3ccc(C(=O)O)cc3C2=O)cc1

screen / no. | 33 | 34 | 35 | 36 | 37 | 38 | 39 | 40
HCMV NEC inh | 80* | 2 | -91 | -10 | -24 | . | 10 | -77
GIV Gai3 FP | . | . | 73* | . | -61* | 126 | 110 | -73*
